Tested on: mCRC patients
Test: IMC-0144 phase II clinical trial (single agent cetuximab), tumor response by K-ras lcs6 genotype
Assay type: in vivo, human
Procedure: Background: This study was to test whether k-ras lcs 6 SNP may be associated with clinical outcome in 130 mCRC patients enrolled in IMCL-0144 trial and in 186 patients enrolled in EPIC trial independent of K-Ras mutation status in the tumor.
Methods: K-ras lcs 6 SNP was tested in 130 mCRC patients enrolled in IMC-0144 phase II clinical trial (single agent cetuximab) and in 186 mCRC patients enrolled in a second line phase III trial of cetuximab plus irinotecan versus irinotecan alone (EPIC). Genomic DNA was extracted from dissected formalin fixed paraffin embedded tumor tissue and K-ras mutation status and the polymorphism were analyzed using direct sequencing and PCR-RFLP technique. Forward primer: […] (SEQ ID NO. 1). Reverse primer: […] (SEQ ID NO. 2). Annealing temperature was 60° C.

Cetuximab
partial response (PR) rate (patients with wild type K-ras harboring a G allele (TG+GG) of K-ras lcs6, 12 patients): 42% | partial response (PR) rate (patients with wild type K-ras with TT genotype of K-ras lcs6, 55 patients): 9%

Source: patent US20120107309A1, “POLYMORPHISM IN K-RAS 3' UNTRANSLATED REGION ASSOCIATED WITH CLINICAL OUTCOMES OF CANCER TREATMENTS INDEPENDENT OF K-RAS MUTATION STATUS” (University of Southern California, priority 2009, published 2012)
